For this assay, the system named is patients with IBC (inflammatory breast cancer). Put plainly: EGF103009 open-label study of lapatinib monotherapy: clinical response (skin criteria / RECIST) and progression-free survival. In kind it is in vivo, human. The following applies: cohort A responders.

Structures are written as SMILES.

With `CS(=O)(=O)CCNCc1ccc(-c2ccc3ncnc(Nc4ccc(OCc5cccc(F)c5)c(Cl)c4)c3c2)o1` [lapatinib, Lapatinib ditosylate], the “Median duration of overall response (skin and RECIST)” value came out at 16.9 weeks.

The values above are taken from patent US20100173918A1, “METHODS AND COMPOSITIONS FOR DETERMINING THE EFFICACY OF BREAST CANCER THERAPEUTICS” (TARGETED MOLECULAR DIAGNOSTICS, LLC, priority 2007, published 2010).
